Data from PubChem BioAssay AID2280 (The Scripps Research Institute Molecular Screening Center, 2010).
The list shows a part of the results, in another mix than the full data. Some tests of the compounds listed are not included; inactive here does not mean inactive elsewhere. Active and inactive are the calls of the source.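 How the source made its calls: active means percent inhibition above a per-plate cutoff, the plate mean of test compounds plus 3 SD (cut at about 30% in these data); inactive means the rest.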

Protein sequences, listed by entry. Tags and fused reporters are not part of them.
UniProt Q17339, whole entry: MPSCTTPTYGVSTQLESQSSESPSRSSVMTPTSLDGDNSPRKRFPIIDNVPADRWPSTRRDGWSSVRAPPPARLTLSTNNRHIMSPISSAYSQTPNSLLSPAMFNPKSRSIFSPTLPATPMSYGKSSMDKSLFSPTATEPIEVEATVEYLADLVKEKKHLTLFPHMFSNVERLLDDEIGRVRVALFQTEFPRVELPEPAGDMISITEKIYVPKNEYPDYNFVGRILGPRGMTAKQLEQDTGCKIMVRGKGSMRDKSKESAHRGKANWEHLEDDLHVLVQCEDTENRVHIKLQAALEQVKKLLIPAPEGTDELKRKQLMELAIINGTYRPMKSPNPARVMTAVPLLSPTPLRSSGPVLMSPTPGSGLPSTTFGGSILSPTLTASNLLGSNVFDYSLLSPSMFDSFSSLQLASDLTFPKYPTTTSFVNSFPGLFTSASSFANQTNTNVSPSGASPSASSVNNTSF

target: Female germline-specific tumor suppressor gld-1 (Caenorhabditis elegans) (UniProt Q17339); experiment: small molecules blocking C. elegans GLD-1 RNA recognition – biochemical, fluorescence polarization, primary screen (AID 2280); conditions: purified GLD-1 + fluorescein TGE RNA, at 5.96 µM, active compounds read high;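 further: 0% = DMSO wells with GLD-1 and probe and 100% = wells lacking GLD-1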

Question: For `Cc1ccc(C(=O)NCC2(N3CCCCC3)CCCCC2)cc1`, which inhibition is on record?
Answer: The inhibition was inactive: -1%.

Question: How did the inhibition turn out when `CC(C)N1C(=O)CC2(CCN(CCOC(=O)C(O)(c3ccccc3)c3ccccc3)CC2)C1=O` was run?
Answer: Its inhibition is inactive: 5.09%.

Question: How did the inhibition turn out when `COc1cc(SC)ccc1C(=O)NCC1(N(C)C)CCCCC1` was run?
Answer: Its inhibition is inactive: -1.8%.

Question: Which inhibition does the source give for `CCN(CC)CC(C)C(C)OC(=O)C(O)(c1ccccc1)c1ccccc1` (centres undefined) here?
Answer: Its inhibition is inactive: 1.61%.

Question: `CN1[C@@H]2CC[C@H]1CC(OC(=O)C(O)(c1ccccc1)c1ccccc1)C2` (some centres undefined) was tested. Which inhibition did it give?
Answer: Its inhibition is inactive: -13%.

Question: With `O=C(NCC1(N2CCCCC2)CCCCC1)c1cc([N+](=O)[O-])ccc1Cl` as the compound, how does the inhibition read?
Answer: Its inhibition is inactive: -5.44%.

Question: For `O=C(NCC1(N2CCCCC2)CCCCC1)c1cccc(Br)c1`, which inhibition is on record?
Answer: Its inhibition is inactive: -13.6%.

Question: `Cc1cc(C(=O)NCC2(N3CCCCC3)CCCCC2)ccc1[N+](=O)[O-]` was tested. Which inhibition did it give?
Answer: Its inhibition is inactive: -7.28%.

Question: How did the inhibition turn out when `CCN1CCCC(OC(=O)C2(O)c3ccccc3C=Cc3ccccc32)C1` (centres undefined) was run?
Answer: The inhibition was inactive: 2.29%.

Question: With `COc1ccc(C(=O)NCC2(N(C)C)CCCCC2)cc1` as the compound, how does the inhibition read?
Answer: Its inhibition is inactive: -4.99%.

Question: How did the inhibition turn out when `O=C(NCC1(N2CCCCC2)CCCCC1)c1cc(F)c(F)cc1Cl` was run?
Answer: Its inhibition is inactive: 2.22%.

Question: `C=CCN1CCN(CCOC(=O)C(O)(c2ccccc2)c2ccccc2)CC1` was tested. Which inhibition did it give?
Answer: Its inhibition is inactive: -0.81%.

Question: How did the inhibition turn out when `CN(C)C1CCCC1OC(=O)C(O)(c1ccccc1)c1ccccc1` (centres undefined) was run?
Answer: The inhibition was inactive: -3.81%.

Question: `CN(C)c1ccc(C(=O)NCC2(N(C)C)CCCCC2)cc1` was tested. Which inhibition did it give?
Answer: Its inhibition is inactive: -3.58%.

Question: `Cc1ccccc1C(=O)NCC1(N2CCCCC2)CCCCC1` was tested. Which inhibition did it give?
Answer: Its inhibition is inactive: -8.48%.

Question: With `O=C(NCC1(N2CCCCC2)CCCCC1)c1cccc(Cl)c1` as the compound, how does the inhibition read?
Answer: Its inhibition is inactive: 0.38%.

Question: For `COc1ccc(Cl)cc1C(=O)NCC1(N(C)C)CCCCC1`, which inhibition is on record?
Answer: Its inhibition is inactive: 12%.

Question: Which inhibition does the source give for `COc1cccc(C(=O)NCC2(N3CCCCC3)CCCCC2)c1` here?
Answer: Its inhibition is inactive: 3.91%.

Question: Which inhibition does the source give for `COc1cc(C(=O)NCC2(N(C)C)CCCCC2)c([N+](=O)[O-])cc1OC` here?
Answer: Its inhibition is inactive: 5.88%.

Question: Which inhibition does the source give for `CN(C)C1(CNC(=O)c2ccc(Br)cc2)CCCCC1` here?
Answer: The inhibition was inactive: 5.68%.

Question: `CN(C)c1cccc(C(=O)NCC2(N(C)C)CCCCC2)c1` was tested. Which inhibition did it give?
Answer: The inhibition was inactive: 6.21%.

Question: With `CC(C)Oc1ccc(C(=O)NCC2(N(C)C)CCCCC2)cc1` as the compound, how does the inhibition read?
Answer: The inhibition was inactive: 4.32%.

Question: `COc1ccc(Br)c(C(=O)NCC2(N3CCCCC3)CCCCC2)c1` was tested. Which inhibition did it give?
Answer: The inhibition was inactive: -12.7%.

Question: For `O=C(OC1CN2CCC1CC2)C(CO)(c1ccccc1)c1ccccc1` (centres undefined), which inhibition is on record?
Answer: The inhibition was inactive: 4.43%.
